Reference: US20220204473A1, “COMPOUND AS IRAK INHIBITOR” (SHANGHAI MEIYUE BIOTECH DEVELOPMENT CO., LTD., priority 2018, published 2022)
pIC50: −log10 of the molar value. Each block holds one molecule with its values, some of them ahead of it.

The chains behind the UniProt entries cited, without tags or fusion partners.
UniProt Q9NWZ3, whole entry: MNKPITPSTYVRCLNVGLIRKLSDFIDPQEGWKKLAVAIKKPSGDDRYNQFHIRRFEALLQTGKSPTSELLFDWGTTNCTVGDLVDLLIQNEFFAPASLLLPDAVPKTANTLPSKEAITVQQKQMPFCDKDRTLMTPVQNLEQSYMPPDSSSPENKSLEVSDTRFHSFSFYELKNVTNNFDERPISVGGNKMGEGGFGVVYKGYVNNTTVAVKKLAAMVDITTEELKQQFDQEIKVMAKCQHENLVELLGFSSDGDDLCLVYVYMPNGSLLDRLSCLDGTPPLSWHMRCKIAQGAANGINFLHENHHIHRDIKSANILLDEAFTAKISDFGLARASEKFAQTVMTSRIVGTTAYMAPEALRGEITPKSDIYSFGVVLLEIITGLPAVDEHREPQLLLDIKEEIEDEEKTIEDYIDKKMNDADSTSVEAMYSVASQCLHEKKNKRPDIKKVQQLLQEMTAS
UniProt P51617, whole entry: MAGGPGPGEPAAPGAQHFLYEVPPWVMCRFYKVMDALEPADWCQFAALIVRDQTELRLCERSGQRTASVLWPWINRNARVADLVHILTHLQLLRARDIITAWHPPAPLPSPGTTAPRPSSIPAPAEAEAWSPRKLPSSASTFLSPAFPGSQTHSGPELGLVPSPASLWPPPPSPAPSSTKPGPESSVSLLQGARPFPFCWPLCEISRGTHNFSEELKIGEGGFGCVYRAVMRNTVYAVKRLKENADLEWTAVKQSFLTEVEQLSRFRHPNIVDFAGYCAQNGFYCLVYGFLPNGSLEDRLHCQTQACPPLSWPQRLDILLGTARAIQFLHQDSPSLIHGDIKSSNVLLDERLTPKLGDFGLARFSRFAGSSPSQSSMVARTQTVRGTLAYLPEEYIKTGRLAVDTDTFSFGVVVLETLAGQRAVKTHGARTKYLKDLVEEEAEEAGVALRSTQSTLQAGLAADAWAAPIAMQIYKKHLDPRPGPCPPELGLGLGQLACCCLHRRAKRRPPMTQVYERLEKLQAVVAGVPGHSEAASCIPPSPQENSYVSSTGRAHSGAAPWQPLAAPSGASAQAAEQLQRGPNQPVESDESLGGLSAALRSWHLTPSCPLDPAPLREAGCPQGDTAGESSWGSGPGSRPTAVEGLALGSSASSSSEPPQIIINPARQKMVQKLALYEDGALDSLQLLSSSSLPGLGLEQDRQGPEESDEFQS
UniProt P08684, whole entry: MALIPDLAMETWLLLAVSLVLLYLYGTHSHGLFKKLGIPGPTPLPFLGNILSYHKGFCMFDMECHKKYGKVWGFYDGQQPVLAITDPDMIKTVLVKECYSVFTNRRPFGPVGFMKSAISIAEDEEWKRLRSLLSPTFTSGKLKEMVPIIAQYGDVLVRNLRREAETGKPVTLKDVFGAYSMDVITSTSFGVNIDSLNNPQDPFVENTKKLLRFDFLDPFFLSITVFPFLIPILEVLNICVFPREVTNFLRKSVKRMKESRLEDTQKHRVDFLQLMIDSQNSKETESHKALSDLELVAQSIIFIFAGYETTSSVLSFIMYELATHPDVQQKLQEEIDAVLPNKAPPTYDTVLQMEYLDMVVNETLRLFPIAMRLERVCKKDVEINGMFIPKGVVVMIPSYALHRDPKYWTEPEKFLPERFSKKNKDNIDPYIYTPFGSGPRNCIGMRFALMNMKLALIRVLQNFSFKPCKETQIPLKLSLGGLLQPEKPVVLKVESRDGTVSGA
UniProt P05177, whole entry: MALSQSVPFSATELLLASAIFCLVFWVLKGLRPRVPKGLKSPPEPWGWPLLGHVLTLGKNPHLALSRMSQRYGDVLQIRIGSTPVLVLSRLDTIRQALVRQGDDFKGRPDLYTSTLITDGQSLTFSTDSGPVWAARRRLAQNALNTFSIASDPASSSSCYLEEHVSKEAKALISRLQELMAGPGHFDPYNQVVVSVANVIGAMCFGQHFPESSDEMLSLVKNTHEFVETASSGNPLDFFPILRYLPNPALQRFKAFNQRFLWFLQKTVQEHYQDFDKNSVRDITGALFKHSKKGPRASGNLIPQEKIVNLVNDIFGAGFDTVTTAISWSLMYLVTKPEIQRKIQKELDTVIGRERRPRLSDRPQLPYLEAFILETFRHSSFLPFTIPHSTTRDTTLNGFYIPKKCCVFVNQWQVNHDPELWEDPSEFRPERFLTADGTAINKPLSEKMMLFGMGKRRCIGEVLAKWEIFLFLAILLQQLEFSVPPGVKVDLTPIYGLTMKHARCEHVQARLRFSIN
UniProt P11712, whole entry: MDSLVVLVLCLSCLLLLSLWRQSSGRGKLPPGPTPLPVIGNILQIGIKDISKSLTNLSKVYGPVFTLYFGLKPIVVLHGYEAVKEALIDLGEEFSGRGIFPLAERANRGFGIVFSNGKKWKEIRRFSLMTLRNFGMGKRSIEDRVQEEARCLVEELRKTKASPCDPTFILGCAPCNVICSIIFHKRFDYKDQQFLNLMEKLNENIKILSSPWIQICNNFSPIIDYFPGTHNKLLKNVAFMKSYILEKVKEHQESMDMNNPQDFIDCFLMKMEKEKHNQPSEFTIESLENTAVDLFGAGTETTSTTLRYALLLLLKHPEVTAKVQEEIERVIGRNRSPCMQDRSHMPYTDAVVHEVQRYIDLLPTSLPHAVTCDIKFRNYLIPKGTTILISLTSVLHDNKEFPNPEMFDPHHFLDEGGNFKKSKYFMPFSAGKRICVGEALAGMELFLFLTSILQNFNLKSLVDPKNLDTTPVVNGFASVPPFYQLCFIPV
UniProt P33261, whole entry: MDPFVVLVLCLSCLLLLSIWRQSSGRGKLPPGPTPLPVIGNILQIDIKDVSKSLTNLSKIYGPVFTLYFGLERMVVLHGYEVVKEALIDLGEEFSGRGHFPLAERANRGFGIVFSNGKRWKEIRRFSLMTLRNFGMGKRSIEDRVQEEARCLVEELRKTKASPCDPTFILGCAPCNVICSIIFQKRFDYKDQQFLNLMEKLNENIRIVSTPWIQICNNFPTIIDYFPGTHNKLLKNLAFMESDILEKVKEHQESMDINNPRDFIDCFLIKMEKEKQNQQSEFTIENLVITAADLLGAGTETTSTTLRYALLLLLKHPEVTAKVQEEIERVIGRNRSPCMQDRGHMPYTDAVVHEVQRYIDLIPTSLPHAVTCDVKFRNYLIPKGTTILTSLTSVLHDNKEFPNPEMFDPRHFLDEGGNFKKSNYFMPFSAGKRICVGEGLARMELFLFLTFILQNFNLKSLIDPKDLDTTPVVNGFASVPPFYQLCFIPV
UniProt P10635, whole entry: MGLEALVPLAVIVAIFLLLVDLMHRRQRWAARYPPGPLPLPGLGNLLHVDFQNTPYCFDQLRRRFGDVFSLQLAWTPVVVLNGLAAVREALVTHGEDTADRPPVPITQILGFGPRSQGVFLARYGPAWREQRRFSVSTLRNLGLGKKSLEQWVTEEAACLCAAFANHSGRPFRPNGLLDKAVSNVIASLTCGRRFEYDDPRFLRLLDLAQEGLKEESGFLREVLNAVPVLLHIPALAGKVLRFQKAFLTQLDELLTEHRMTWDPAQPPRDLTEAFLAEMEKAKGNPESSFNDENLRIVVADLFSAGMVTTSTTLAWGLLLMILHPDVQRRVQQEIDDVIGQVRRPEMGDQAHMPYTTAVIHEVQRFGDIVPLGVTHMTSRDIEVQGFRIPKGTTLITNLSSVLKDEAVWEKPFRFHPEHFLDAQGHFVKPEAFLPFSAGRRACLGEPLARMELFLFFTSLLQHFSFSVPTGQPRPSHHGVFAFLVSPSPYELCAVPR

What was measured:
[1] = system: cytokine TNF-α in LPS-induced human PBMCs; experiment: Inhibition of cytokine TNF-α in LPS-induced human PBMC (ELISA); type: cell-based; settings: read-out: IC50 (nM, TNF-α inhibition), 0.1 μg/mL LPS for 4 h
[2] = Stability in human liver microsomes; settings: ∞ = no obvious metabolism found during assay
[3] = Stability in rat liver microsomes; settings: ∞ = no obvious metabolism found during assay
[4] = Stability in mouse liver microsomes; settings: ∞ = no obvious metabolism found during assay
[5] = PK assay in rat (intravenous injection and oral gavage); settings: male SD rat
[6] = system: Salmonella typhimurium TA98 and TA100; experiment: Mini-Ames assay in Salmonella typhimurium; settings: TA98 and TA100, with or without S9 mixture
human IRAK4 = human IRAK4 (Homo sapiens, UniProt Q9NWZ3); experiment: IRAK4 MSA (Mobility-Shift Assay) at Km ATP; settings: read-out: IC50 for inhibiting human IRAK4 kinase; GST-IRAK4 1 nM, ATP 37 μM (Km)
human IRAK1 = human IRAK1 (Homo sapiens, UniProt P51617); experiment: IRAK1 MSA (Mobility-Shift Assay) at Km ATP; type: biochemical
CYP3A4 = CYP3A4 (Homo sapiens, UniProt P08684); experiment: CYP450 inhibition in human liver microsomes, CYP3A4; type: in vitro ADME; settings: read-out: IC50, subtype 3A4, probe midazolam
Description: This study was intended to investigate the inhibitory effect of the test compounds on five major CYP450 enzyme subtypes CYP1A2, 2C9, 2C19, 2D6 and 3A4 in human liver microsomes. The mixed human liver microsomes used in this assay were purchased from Corning (USA). The test compounds were co-incubated at 7 concentrations with human liver microsomes and five probe substrates (phenacetin for CYP1a2, diclofenac for CYP2C9, mephenytoin for CYP2C19, dextromethorphan for CYP2D6, midazolam for CYP3A4-M, mixed). The reaction was initiated by adding coenzyme NADPH, and terminated by adding acetonitrile containing internal standard. After the proteins were precipitated, the supernatant was centrifuged. The characteristic metabolites in the supernatant (acetaminophen for CYP1A2, 4-hydroxydiclofenac for CYP2C9, 4-hydroxymephenytoin for CYP2C19, dextrorphan for CYP2D6, 1-hydroxymidazolam for CYP3A4-M) were analyzed by LC-MS/MS. The influence of the test compounds on production of the characteristic metabolites was finally analyzed on the basis of the data obtained. A selective inhibitor (ketoconazole for CYP3A4-M) was used as positive control. All samples were tested in duplicate.

CYP1A2 = CYP1A2 (Homo sapiens, UniProt P05177)
CYP2C9 = CYP2C9 (Homo sapiens, UniProt P11712)
CYP2C19 = CYP2C19 (Homo sapiens, UniProt P33261)
CYP2D6 = CYP2D6 (Homo sapiens, UniProt P10635)
[7] = oral administration, 2 mpk, 5% DMSO + 15% Solutol + 80% Saline

Structure (SMILES): COc1cc2nn([C@H]3C[C@H](C(C)(C)O)C3)cc2cc1NC(=O)c1cccc(C(F)(F)F)n1
IC50 [1]: 75 nM
Stability test in liver microsomes t1/2, Human [2]: ∞
Stability test in liver microsomes t1/2, Rat [3]: ∞
Stability test in liver microsomes t1/2, Mouse [4]: 36.98 h
Area under curve AUC0-t ([5]; intravenous injection, 1 mpk): 2914.24 ng·h/mL
Area under curve AUC0-∞ ([5]; intravenous injection, 1 mpk): 3027.43 ng·h/mL
Average retention time MRT ([5]; intravenous injection, 1 mpk): 5.99 h
Clearance CL ([5]; intravenous injection, 1 mpk): 5.51 mL/min/kg
Half life t1/2 ([5]; intravenous injection, 1 mpk): 5.48 h
Volume of distribution at steady state VZ ([5]; intravenous injection, 1 mpk): 2.69 L/kg
Peak concentration Cmax ([5]; intravenous injection, 1 mpk, 5% DMSO + 15% Solutol + 80% Saline): 903.74 ng/mL
Area under curve AUC0-t [5, 7]: 5029.62 ng·h/mL
Area under curve AUC0-∞ [5, 7]: 5770.55 ng·h/mL
Average retention time MRT [5, 7]: 11.28 h
Bioavailability F [5, 7]: 86.29%
Half life t1/2 [5, 7]: 7.26 h
Peak concentration Cmax [5, 7]: 413.49 ng/mL
Time to peak tmax [5, 7]: 4 h
Mini-Ames result [6]: negative

pIC50 (human IRAK4): 7.59
Stability test in liver microsomes t1/2, Human [2]: 2.62 h
Stability test in liver microsomes t1/2, Rat [3]: 2.03 h
Stability test in liver microsomes t1/2, Mouse [4]: 4.45 h
Structure (SMILES): COc1cc2nn(C3CN(CC(C)(C)O)C3)cc2cc1NC(=O)c1cccc(C(F)(F)F)n1

Structure (SMILES): CC(C)(O)c1cc2nn([C@H]3CC[C@@](C)(O)CC3)cc2cc1NC(=O)c1cccc(C(F)(F)F)n1
pIC50 (human IRAK4): 8.51
pIC50 (human IRAK1; read-out: IRAK1 IC50, GST-IRAK1 3 nM, ATP 97 μM (Km)): 5.38
IC50 (IRAK1)/IC50 (IRAK4) (human IRAK1; selectivity for IRAK4): 1331
IC50 [1]: 146 nM
Stability test in liver microsomes t1/2, Human [2]: ∞
Stability test in liver microsomes t1/2, Rat [3]: ∞
Stability test in liver microsomes t1/2, Mouse [4]: ∞
pIC50 (CYP3A4): < 4.52
pIC50 (CYP1A2): < 4.52
pIC50 (CYP2C9): 4.59
pIC50 (CYP2C19): < 4.52
pIC50 (CYP2D6): < 4.52
